{"source": "patent US4914086A", "about": "“Method for treating African human and veterinary trypanosomiases” (priority 1987, dated 1990)", "experiment": "in vivo", "conditions": "mouse, ip, 400 mg/kg", "method": "Swiss-Webster (25-30 g) mice were used throughout. In the EATRO 110 model, groups of 100 mice were infected (10^5 trypanosomes/mouse) and the infection was allowed to develop 24 hours before commencing therapy. Animals were divided into groups of 5 before treatment. Cured animals survived >30 days beyond deaths of controls. All compounds were administered by i.p. injection.", "data": [{"smiles": "O=c1[nH]cnc2c([C@@H]3O[C@H](CO)[C@@H](O)[C@H]3O)c[nH]c12", "note": "[9-DINO, 7-beta-D-ribofuranosyl-4-oxo-3H, 5H-pyrrolo (3,2-d) pyrimidine]", "values": [{"measurement": "mortality", "value": 40, "unit": "%"}]}]}
